Experimental data published in US4571399A, “7-(1-Methyl-5-p-methylbenzoylpyrrole-2-acetamidoethyl)-theophylline with anti-platelet aggregant and broncholytic activity” (Medosan Industrie Biochimiche Riunite S.p.A., priority 1983, dated 1986).
“Also recorded” adds a separate entry of the source. Read-outs that look alike come from different tables or passages of the source.

How the values were obtained:
[1] = system: guinea pig tracheal chains (histamine as bronchoconstrictor); assay: Broncholytic activity in vitro on tracheal chains (Akasu's method), antagonism of histamine; assay type: cell-based; conditions: summary in words
in vivo = conditions: mouse
[2] = system: platelet aggregation induced with ADP (platelet rich plasma); assay: In vitro anti-platelet aggregant activity (Born's method, ADP-induced aggregation); assay type: cell-based, rat; conditions: for inhibition at 1 µg/mL / inhibition at 5 µg/mL / inhibition at 10 µg/mL: Rattus norvegicus, Platelet, 0.05 h, 3 min incubation; for inhibition at 1 µg/mL: dose 1 γ/ml; for inhibition at 5 µg/mL: dose 5 γ/ml; for inhibition at 10 µg/mL: dose 10 γ/ml
Solubility = assay type: physicochemical; conditions: in dichloromethane, N,N'-dimethylformamide
[3] = Antinflammatory and analgesic effects (no method described); conditions: summary in words; no data shown
mouse = conditions: i.p., literature value; cited from earlier work
[4] = ADP 7,08 μmol/l, read-out: Inhibition % of platelet aggregation
[5] = read-out: Inhibition % of platelet aggregation, ADP 7,08 μmol/l

Compound | broncholytic activity [1] | LD50 (in vivo; ip) [mg/kg] | LD50 (in vivo; po) [mg/kg] | inhibition at 1 µg/mL ([2]; ADP 2 μmol/l, read-out: Inhibition % of platelet aggregation) [%] | inhibition at 1 µg/mL ([2]; ADP 5 μmol/l, read-out: Inhibition % of platelet aggregation) [%] | inhibition at 1 µg/mL [2, 4] [%] | inhibition at 5 µg/mL [2, 4] [%] | inhibition at 10 µg/mL [2, 4] [%] | anti-platelet aggregant activity ([2]; summary in words) | Solubility (Solubility) | analgesic effect [3] | antinflammatory effect [3] | inhibition at 1 µg/mL ([2]; read-out: Inhibition % of platelet aggregation, ADP 2 μmol/l) [%] | inhibition at 1 µg/mL ([2]; read-out: Inhibition % of platelet aggregation, ADP 5 μmol/l) [%] | inhibition at 1 µg/mL [2, 5] [%] | inhibition at 5 µg/mL [2, 5] [%] | inhibition at 10 µg/mL [2, 5] [%] | DL50 (LD50) (mouse) [mg/kg]
Cc1ccc(C(=O)c2ccc(CC(=O)NCCn3cnc4c3c(=O)n(C)c(=O)n4C)n2C)cc1 [compound (1), 7-(1-methyl-5-p-methylbenzoylpyrrole-2-acetamidoethyl)theophylline] | good broncholytic action; also recorded: good broncholytic activity comparable to that of theophylline | 970 | 1400 | 30 | 21 | 12 | 59 | 90 | pronounced therapeutically useful anti-platelet aggregant activity | soluble in dichloromethane, N,N'-dimethylformamide | low antinflammatory and analgesic effects | low antinflammatory and analgesic effects | – | – | – | – | – | –
CC(=O)Oc1ccccc1C(=O)O [Aspirin, reference compound] | – | – | – | – | – | – | – | – | – | – | – | – | 29 | 19 | 15 | 60 | 100 | 495
